# US7425558B2, “Serotonergic agents for treating sexual dysfunction” (Wyeth, priority 2000, dated 2008)
# Protein sequences, listed by entry. Tags and fused reporters are not part of them.
# UniProt P19327, whole entry: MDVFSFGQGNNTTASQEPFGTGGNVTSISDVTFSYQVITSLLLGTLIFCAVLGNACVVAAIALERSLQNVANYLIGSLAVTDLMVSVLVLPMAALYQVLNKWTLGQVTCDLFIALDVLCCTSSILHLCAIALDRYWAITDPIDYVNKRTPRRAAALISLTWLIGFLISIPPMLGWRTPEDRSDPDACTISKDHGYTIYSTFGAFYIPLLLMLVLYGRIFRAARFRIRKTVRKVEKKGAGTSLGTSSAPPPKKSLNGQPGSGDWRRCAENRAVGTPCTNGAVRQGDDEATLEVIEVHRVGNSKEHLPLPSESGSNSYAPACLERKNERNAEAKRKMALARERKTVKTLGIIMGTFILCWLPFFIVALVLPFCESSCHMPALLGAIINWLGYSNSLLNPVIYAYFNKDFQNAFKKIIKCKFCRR
# Values joined by “and” are separate entries in the source; they are usually repeats but may differ in a detail not shown here. Identical values can stand only once.
# How the values were obtained:
# [1] = target: T1, 5-HT1A (Rattus norvegicus, UniProt P19327); experiment: Duration of action in the Fixed Responding Model; details: Control + 8-OH-DPAT 0.3 mg/kg sc (no antagonist); one control group under each test compound
# [2] = target: T1, 5-HT1A; experiment: Fixed Responding Model, in vivo 5-HT1A antagonism of 8-OH-DPAT-induced decrease in response rate; design: from tissue; host or cells: whole animal (rat), behavioural model; species or system rats; details: 8-OH-DPAT (0.3 mg/kg sc) alone; vehicle control 2.4 ± 0.5
# Procedure: The ability of the compounds to function in vivo as 5-HT1A antagonists was assessed in rats using a Fixed Responding Model (D. Blackman, in “Operant Conditioning: An Experimental Analysis of Behavior”, J. Butcher, ed., Methuen and Co., Ltd., London). In this model rats are trained to respond (lever pressing) under a fixed-ratio 30 schedule of food presentation in order to receive a food pellet reinforcer. Administration of the 5-HT1A agonist 8-OH-DPAT reduces the control response rate (assessed by administration of vehicle placebo). The 5-HT1A antagonist activity of a test compound is determined by measuring its ability to antagonize this agonist-induced decrease in response rate. […] Thus, compounds of the present invention function as 5-HT1A antagonists in vivo.
compound,measurement,setting,value
"CCCN(CCC)C1CCc2cccc(O)c2C1 (centres unmarked) [8-OH-DPAT, reference compound]","% Response Rate, 0.5 hour pretreatment",[1],21 ± 9% and 29 ± 6% and 23 ± 9%
same,Response Rate,[2],0.5 ± 0.2 responses/second
